Data as given in patent US9061010B2, “Methods of treating a Flaviviridae family viral infection and compositions for treating a Flaviviridae family viral infection” (The Board of Trustees of the Leland Stanford Junior …, priority 2007, dated 2015).

Columns and labels:
Huh7.5 cells = test: Alamar Blue viability assay
Experimental: (§1) Huh-7.5 cells were maintained in Dulbecco's modified minimal essential medium (Gibco) supplemented with 1% L-glutamine (Gibco), 1% penicillin, 1% streptomycin (Gibco), 1× nonessential amino acids (Gibco) and 10% fetal bovine serum (Omega Scientific). Cell lines were passaged twice weekly after treatment with 0.05% trypsin-0.02% EDTA and seeding at a dilution of 1:5. Subconfluent Huh-7.5 cells were trypsinized and collected by centrifugation at 700 g for 5 min. The cells were then washed three times in ice-cold RNase-free PBS (BioWhittaker) and resuspended at 1.5*10^7 cells/ml in PBS. Wild type or mutant FL-J6/JFH-5′C19Rluc2AUbi RNA for electroporation was generated by in vitro transcription of XbaI-linearized DNA templates using the T7 MEGAscript kit (Ambion), followed by purification, essentially as described above (In vitro RNA transcription and fluorescent labeling). 5 μg of RNA was mixed with 400 μl of washed Huh-7.5 cells in a 2 mm-gap cuvette (BTX) and immediately pulsed (0.82 kV, five 99 μs pulses) with a BTX-830 electroporator. After a 10 min recovery at 25° C., pulsed cells were diluted into 10 ml of prewarmed growth medium. Cells from several electroporations were pooled to a common a stock and seeded in 6 well plates (5*10^5 cells per well). After 24 hr, medium was replaced and cells were grown in the presence of serial dilutions of the various inhibitory compounds (Sigma) identified in the screen. […] Untreated cells were used as a negative control for water soluble compounds. For compounds solubilized in DMSO, untreated cells were grown in the presence of corresponding concentrations of the solvent as a negative control. Medium was changed daily. After 72 hr of treatment, cells were subjected to an alamar blue based viability assay and luciferase assay.
(§2) Following 72 hrs of treatment, cells were incubated for 3 hrs at 37° C. in the presence of 10% Alamar Blue reagent (TREK Diagnostic Systems).

[1] = Alamar Blue viability assay; details: human
Experimental: as §1, §2

## Cc1nc2ccccc2n1Cc1ccc(Br)cc1
Huh7.5 cells; 5 uM
  Viab score: ++ (30-60% residual activity)
  Viab, percent of normal cell viability remaining: 54%
Huh7.5 cells; 10 uM
  Viab score: ++ (30-60% residual activity)
  Viab, percent of normal cell viability remaining: 51%

## Cc1nc2cc(Cl)ccc2n1Cc1ccccc1
Huh7.5 cells; 5 uM
  Viab, percent of normal cell viability remaining: 99%
Huh7.5 cells; 10 uM
  Viab, percent of normal cell viability remaining: 94%
[1]
  viability at 72 h, 5 µM: 90 to 100%
  viability at 72 h, 10 µM: 90 to 100%

## Brc1ccc(Cn2cnc3ccccc32)cc1
Huh7.5 cells; 5 uM
  Viab score: + (60-90% residual activity)
  Viab, percent of normal cell viability remaining: 81%
Huh7.5 cells; 10 uM
  Viab score: + (60-90% residual activity)
  Viab, percent of normal cell viability remaining: 68%

## Cc1ccc(Cn2cnc3ccccc32)cc1
Huh7.5 cells; 5 uM
  Viab, percent of normal cell viability remaining: 99%
Huh7.5 cells; 10 uM
  Viab score: + (60-90% residual activity)
  Viab, percent of normal cell viability remaining: 84%
[1]
  viability at 72 h, 5 µM: 90 to 100%

## COC(=O)c1ccc(Cn2cnc3ccccc32)cc1
Huh7.5 cells; 5 uM
  Viab, percent of normal cell viability remaining: 101%
Huh7.5 cells; 10 uM
  Viab, percent of normal cell viability remaining: 96%
[1]
  viability at 72 h, 5 µM: 90 to 100%
  viability at 72 h, 10 µM: 90 to 100%

## CC(C)(C)c1ccc(Cn2cnc3ccccc32)cc1
Huh7.5 cells; 5 uM
  Viab score: + (60-90% residual activity)
  Viab, percent of normal cell viability remaining: 87%
Huh7.5 cells; 10 uM
  Viab score: + (60-90% residual activity)
  Viab, percent of normal cell viability remaining: 76%

## OCc1nc2ccccc2n1Cc1ccc(Br)cc1
Huh7.5 cells; 5 uM
  Viab, percent of normal cell viability remaining: 97%
Huh7.5 cells; 10 uM
  Viab, percent of normal cell viability remaining: 90%
[1]
  viability at 72 h, 5 µM: 90 to 100%
  viability at 72 h, 10 µM: 90 to 100%

## Cc1cc2ncn(Cc3ccc(Cl)cc3Cl)c2cc1C
Huh7.5 cells; 5 uM
  Viab score: + (60-90% residual activity)
  Viab, percent of normal cell viability remaining: 83%
Huh7.5 cells; 10 uM
  Viab score: + (60-90% residual activity)
  Viab, percent of normal cell viability remaining: 70%

## COc1ccc(Cn2cnc3ccccc32)cc1
Huh7.5 cells; 5 uM
  Viab, percent of normal cell viability remaining: 98%
Huh7.5 cells; 10 uM
  Viab, percent of normal cell viability remaining: 100%
[1]
  viability at 72 h, 5 µM: 90 to 100%
  viability at 72 h, 10 µM: 90 to 100%
